According to ChEMBL document CHEMBL3638726, “Substituted indole compounds having NOS inhibitory activity” (2013):
pIC50: −log10 of the molar value.

Protein sequences, listed by entry. Tags and fused reporters are not part of them.
UniProt Q8MI13, whole entry: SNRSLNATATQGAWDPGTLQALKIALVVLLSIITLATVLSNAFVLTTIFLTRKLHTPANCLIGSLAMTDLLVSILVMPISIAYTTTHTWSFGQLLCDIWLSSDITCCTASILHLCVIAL

Target: 5-hydroxytryptamine 1D receptor (Bos taurus, UniProt Q8MI13)
Experiment: Binding Assay: 5-HT1D binding assays (agonist radioligand)were performed using bovine caudate membranes according to the methods of Heuring and Peroutka (J. Neurosci 1987, 7: 894-903). 5-HT1B (rat cerebral cortex) binding assays (agonist radioligand) were performed according to the method of Hoyer et. al. (Eur. J. Pharmacol. […], 118: 1-12).
Assay type: tissue-based

Compound	pIC50
CN(C)CCCc1c[nH]c2ccc(/N=C(\N)c3cccs3)cc12	6.06
CN1CCC(c2c[nH]c3ccc(NC(=N)c4ccco4)cc23)CC1	6.55
